## AlphaSeq binding of Ab-14 light chain variants to a spike HR2 peptide

The target is the same throughout: PDVDLGDISGINAS, from the HR2 region of SARS-CoV-2 spike.

Parent: Ab-14, a human scFv built as VH, a 15-residue (Gly4Ser)3 linker, VL. Only the CDRs of the light chain vary.
VH: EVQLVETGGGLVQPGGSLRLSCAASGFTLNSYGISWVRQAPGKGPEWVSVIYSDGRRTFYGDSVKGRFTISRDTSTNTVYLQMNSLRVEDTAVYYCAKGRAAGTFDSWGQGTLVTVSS
VL: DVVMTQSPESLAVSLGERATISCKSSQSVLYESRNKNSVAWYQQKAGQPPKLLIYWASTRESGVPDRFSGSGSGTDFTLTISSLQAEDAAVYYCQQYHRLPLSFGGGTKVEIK

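The parent was found by panning a naive human phage display library on the peptide. This is the validation round: designs drawn from the data on random variants, tested in the same kind of assay. Several design methods are mixed in this list. In AlphaSeq, yeast of one mating type display the scFv and yeast of the other type display the target. The frequency of each diploid, read from paired DNA barcodes, reflects how well the two displayed proteins bind. Each replicate has its own calibration line, from reference interactions of the BCL2 family. Mating was done six times.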

Substitutions are numbered in sequence along the VL above, starting at 1 (not Kabat). This list holds designs with at most six substitutions. Kd is apparent (estimated from mating counts) and averaged on the log scale over replicates with a signal. Smaller is tighter. Where no diploid with the target was found in any replicate, the entry reads "nd": below detection, most likely a poor binder, though not proof of it.

* V29F/S38A/W56G/H98M: 520 pM (6 of 6 replicates)
* S25L/V29E/W56E/E61M: 830 pM (6 of 6 replicates)
* L102W: nd (0 of 6 replicates)
* S25L/V29C/W56D: 330 pM (6 of 6 replicates)
* S25F/T59N: 27 nM (6 of 6 replicates)
* K24H/Q27P/L30N/R34G/W56N: 1.7 nM (6 of 6 replicates)
* R34G/K36F: 230 nM (6 of 6 replicates)
* S28E/L30K/Y31F/W56D: 2.9 nM (6 of 6 replicates)
* S25V/S26P/S38A/W56N: 1.2 nM (6 of 6 replicates)
* S25F/S28W/N35Q/W56N: 330 pM (6 of 6 replicates)
* S25C/L100W: 500 nM (3 of 6 replicates)
* S25L/V29Y/W56N/T59Q/S62V: 550 pM (6 of 6 replicates)
* W56A/S62T: 26 nM (6 of 6 replicates)
* S25L/S28V/V29Q/W56G: 1.8 nM (6 of 6 replicates)
* S25V/V29Q/N35M/N37Q/W56N/T59Q: 1.8 nM (6 of 6 replicates)
* S25V/S26Q/V29E/W56N/T59Q: 1.4 nM (6 of 6 replicates)
* K24I/R34E/W56G: 3.4 nM (6 of 6 replicates)
* S26D/E32D/S33R/V39M: 60 nM (2 of 6 replicates)
* K24F/S25L/S33D/W56N/T59Q: 450 pM (6 of 6 replicates)
* S25F/L30T/N35T/W56N: 850 pM (6 of 6 replicates)
* K24I/S26F/L30A/L100H/L102E: nd (0 of 6 replicates)
* S26D/V29W/K36L/L102N: nd (0 of 6 replicates)
* Q27P/S33H/S62H/Y97P: nd (0 of 6 replicates)
* S28A/T59L: 36 nM (6 of 6 replicates)
* Q27L/L30K/Y31F/W56D: 1.0 nM (6 of 6 replicates)
* S25F/Q27D/N35Y/W56S/R99G/S103R: 23 nM (6 of 6 replicates)
* S25L/W56E/Q96A: 1.5 nM (6 of 6 replicates)
* V29M/S38V/L102C: nd (0 of 6 replicates)
* Y31Q/K36Q/W56D/S58D: 2.1 nM (6 of 6 replicates)
* L30D/Y31S/W56D: 1.3 nM (6 of 6 replicates)
* S26G/Q27C/S28G/L30D/W56G: 1.3 nM (6 of 6 replicates)
* K24F/K36C/S38N/W56H/S58V: 17 nM (6 of 6 replicates)
* S25L/V29D/L30N/K36H/W56H/E61S: 2.3 nM (6 of 6 replicates)
* Q27I/V29E/W56E/S62Q: 740 pM (6 of 6 replicates)
* S25L/S26P/V29S/W56N: 730 pM (6 of 6 replicates)
* S28P/L30G/S33E/W56E/H98D: 1.0 nM (6 of 6 replicates)
* S25L/Y31I: 4.2 nM (6 of 6 replicates)
* S25V/S28E/V29H/W56D: 500 pM (6 of 6 replicates)
* S26T: 57 nM (2 of 6 replicates)
* Q27I/V29M/Y31I/W56E: 9.2 nM (6 of 6 replicates)
* V29C/L30W/Y31T: 35 nM (1 of 6 replicates)
* S26D/S33N: 90 nM (5 of 6 replicates)
* L30A/E32N/P101E: nd (0 of 6 replicates)
* S25L/S26E/V29N/W56N/E61L: 1.3 nM (6 of 6 replicates)

The first 6 variants above that were never detected:

{"changes": "L102W", "Kd (apparent)": "nd", "seen in": "0 of 6"}
{"changes": "K24I/S26F/L30A/L100H/L102E", "Kd (apparent)": "nd", "seen in": "0 of 6"}
{"changes": "S26D/V29W/K36L/L102N", "Kd (apparent)": "nd", "seen in": "0 of 6"}
{"changes": "Q27P/S33H/S62H/Y97P", "Kd (apparent)": "nd", "seen in": "0 of 6"}
{"changes": "V29M/S38V/L102C", "Kd (apparent)": "nd", "seen in": "0 of 6"}
{"changes": "L30A/E32N/P101E", "Kd (apparent)": "nd", "seen in": "0 of 6"}

Background: pairings of all light chain designs with three empty control strains gave a value in 4% of cases (median 430 nM, 5th percentile 38 nM). Values in that range, when seen in few replicates, are hard to tell from nonspecific mating. A sequence measured in both rounds can read differently, since the two assays cover different ranges. The authors' rule: three or more of the six replicates give a measured affinity, fewer mean a poor binder. Of ten entries with the parent sequence, four were seen in most replicates (averages 2.2 nM to 240 nM), three in one and three in none, so single entries are noisy.

Reference: Li et al. 2023, doi:10.1038/s41467-023-39022-2. File: FLAb, binding data.